{"sequences": {"note": "By UniProt entry, the sequences of proteins in these tests, tags left out. Where a name states a change or a piece, a line headed by the entry shows the natural chain unless it says otherwise. Residues count along the entry.", "UniProt P00533, 25-1210 L858R limits assumed": "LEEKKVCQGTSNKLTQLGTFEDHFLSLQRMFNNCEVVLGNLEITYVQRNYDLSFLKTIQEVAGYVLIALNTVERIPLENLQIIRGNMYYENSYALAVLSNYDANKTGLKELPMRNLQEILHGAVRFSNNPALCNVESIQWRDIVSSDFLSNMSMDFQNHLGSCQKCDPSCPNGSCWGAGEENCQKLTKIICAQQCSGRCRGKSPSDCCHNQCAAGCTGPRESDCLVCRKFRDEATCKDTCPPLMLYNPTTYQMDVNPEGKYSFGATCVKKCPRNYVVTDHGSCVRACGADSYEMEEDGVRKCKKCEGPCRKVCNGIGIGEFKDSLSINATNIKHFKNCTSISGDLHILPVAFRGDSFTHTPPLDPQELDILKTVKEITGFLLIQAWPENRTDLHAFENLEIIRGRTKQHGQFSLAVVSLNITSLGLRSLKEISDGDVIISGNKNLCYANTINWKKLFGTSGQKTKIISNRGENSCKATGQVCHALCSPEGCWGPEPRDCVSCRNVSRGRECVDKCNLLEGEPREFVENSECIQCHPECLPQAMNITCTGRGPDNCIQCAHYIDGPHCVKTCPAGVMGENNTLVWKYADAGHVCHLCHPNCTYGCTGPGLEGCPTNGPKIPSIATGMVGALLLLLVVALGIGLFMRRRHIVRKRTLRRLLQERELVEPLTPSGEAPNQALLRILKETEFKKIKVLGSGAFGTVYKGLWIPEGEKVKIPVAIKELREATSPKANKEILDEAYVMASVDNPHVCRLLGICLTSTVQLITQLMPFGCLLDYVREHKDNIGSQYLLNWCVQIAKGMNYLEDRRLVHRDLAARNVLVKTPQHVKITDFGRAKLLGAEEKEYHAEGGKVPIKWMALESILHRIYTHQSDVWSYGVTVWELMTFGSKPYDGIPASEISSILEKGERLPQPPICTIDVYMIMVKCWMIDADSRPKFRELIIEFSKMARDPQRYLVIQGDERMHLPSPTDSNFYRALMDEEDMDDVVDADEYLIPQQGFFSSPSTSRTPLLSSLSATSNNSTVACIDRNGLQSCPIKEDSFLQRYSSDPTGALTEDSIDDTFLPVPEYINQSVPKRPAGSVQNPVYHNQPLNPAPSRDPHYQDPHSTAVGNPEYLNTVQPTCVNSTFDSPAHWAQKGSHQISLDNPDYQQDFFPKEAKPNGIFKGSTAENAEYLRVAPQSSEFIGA"}, "source": "patent US12662465B2", "about": "“EGFR inhibitors” (Blueprint Medicines Corporation, priority 2021, dated 2026)", "key": {"EGFR (d746-750)": {"biological_target": "EGFR (d746-750) (Homo sapiens, UniProt P00533, DEL746-750)", "experiment": "Biochemical EGFR inhibition assay (Caliper mobility shift), EGFR (d746-750)", "details": "read-out: Enz EGFR_Exon19-del746-750 IC50; 1.0 mM ATP or ATP Km; room temperature (25° C.)"}, "EGFR L858R": {"biological_target": "EGFR L858R (Homo sapiens, UniProt P00533, L858R)", "experiment": "Biochemical EGFR inhibition assay (Caliper mobility shift), EGFR L858R", "details": "read-out: Enz EGFR_L858R IC50; 1.0 mM ATP or ATP Km; room temperature (25° C.)"}, "[1]": {"biological_target": "intracellular phosphorylation of EGFR (Tyr1068) in PC-9 cells (Ex19Del) (Homo sapiens, UniProt P00533, DEL746-750)", "experiment": "PC-9 pEGFR AlphaLISA assay", "type": "cell-based", "details": "read-out: Ext pEGFR_PC-9 Ex19Del IC50, 4 hours compound incubation"}}}
{"smiles": "C[C@H](O)[C@@H](C)Oc1cc(-c2cnn(C)c2)cc2ncnc(Nc3ccc4ncccc4c3F)c12", "note": "(relative stereo)", "values": [{"measurement": "IC50", "setting": "EGFR (d746-750)", "result": "< 0.01", "unit": "µM"}, {"measurement": "IC50", "setting": "EGFR L858R", "result": "< 0.01", "unit": "µM"}, {"measurement": "IC50", "setting": "[1]", "result": "< 0.01", "unit": "µM"}]}
{"smiles": "C[C@@H](Oc1cc(-c2cnn(C)c2)cc2ncnc(Nc3ccc4ncccc4c3F)c12)C1CCOC1", "note": "(single isomer, unassigned)", "values": [{"measurement": "IC50", "setting": "EGFR (d746-750)", "result": "< 0.01", "unit": "µM"}, {"measurement": "IC50", "setting": "EGFR L858R", "result": "< 0.01", "unit": "µM"}, {"measurement": "IC50", "setting": "[1]", "result": "< 0.01", "unit": "µM"}]}
{"smiles": "CN(C)[C@H]1CC[C@@H]1Oc1cc(-c2cnn(C)c2)cc2ncnc(Nc3ccc4ncccc4c3F)c12", "note": "(relative stereo)", "values": [{"measurement": "IC50", "setting": "EGFR (d746-750)", "result": "< 0.01", "unit": "µM"}, {"measurement": "IC50", "setting": "EGFR L858R", "result": "< 0.01", "unit": "µM"}, {"measurement": "IC50", "setting": "[1]", "result": "< 0.01", "unit": "µM"}]}
{"smiles": "C[C@@H](O)[C@@H](C)Oc1cc(-c2cnn(C)c2)cc2ncnc(Nc3ccc4ncccc4c3F)c12", "note": "(relative stereo)", "values": [{"measurement": "IC50", "setting": "EGFR (d746-750)", "result": "< 0.01", "unit": "µM"}, {"measurement": "IC50", "setting": "EGFR L858R", "result": "< 0.01", "unit": "µM"}, {"measurement": "IC50", "setting": "[1]", "result": "< 0.01", "unit": "µM"}]}
{"smiles": "CN1CC[C@@H](Oc2cc(-c3cnn(C)c3)cc3ncnc(Nc4ccc5ncccc5c4F)c23)[C@H](F)C1", "note": "(relative stereo)", "values": [{"measurement": "IC50", "setting": "EGFR (d746-750)", "result": "< 0.01", "unit": "µM"}, {"measurement": "IC50", "setting": "EGFR L858R", "result": "< 0.01", "unit": "µM"}]}
{"smiles": "CCC(Oc1cc(-c2cnn(C)c2)cc2ncnc(Nc3ccc4ncccc4c3F)c12)C1COC1", "note": "(single isomer, unassigned)", "values": [{"measurement": "IC50", "setting": "EGFR (d746-750)", "result": "< 0.01", "unit": "µM"}, {"measurement": "IC50", "setting": "EGFR L858R", "result": "< 0.01", "unit": "µM"}, {"measurement": "IC50", "setting": "[1]", "result": "< 0.01", "unit": "µM"}]}
{"smiles": "CC(Oc1cc(-c2cnn(C)c2)cc2ncnc(Nc3ccc4ncccc4c3F)c12)C(=O)N(C)C", "note": "(single isomer, unassigned)", "values": [{"measurement": "IC50", "setting": "EGFR (d746-750)", "result": "< 0.01", "unit": "µM"}, {"measurement": "IC50", "setting": "EGFR L858R", "result": "< 0.01", "unit": "µM"}, {"measurement": "IC50", "setting": "[1]", "result": "< 0.01", "unit": "µM"}]}
{"smiles": "CC(Oc1cc(-c2cnn(C)c2)cc2ncnc(Nc3ccc4ncccc4c3F)c12)C(=O)N1CCOCC1", "note": "(single isomer, unassigned)", "values": [{"measurement": "IC50", "setting": "EGFR (d746-750)", "result": "< 0.01", "unit": "µM"}, {"measurement": "IC50", "setting": "EGFR L858R", "result": "< 0.01", "unit": "µM"}, {"measurement": "IC50", "setting": "[1]", "result": "< 0.01", "unit": "µM"}]}
{"smiles": "Cn1cc(-c2cc(O[C@@H]3CC[C@@H]3O)c3c(Nc4ccc5ncccc5c4F)ncnc3c2)cn1", "note": "(relative stereo)", "values": [{"measurement": "IC50", "setting": "EGFR (d746-750)", "result": "< 0.01", "unit": "µM"}, {"measurement": "IC50", "setting": "EGFR L858R", "result": "< 0.01", "unit": "µM"}, {"measurement": "IC50", "setting": "[1]", "result": "< 0.01", "unit": "µM"}]}
